Source: paper PMC2645942 (Journal of medicinal chemistry, 2008)

The chains behind the UniProt entries cited, without tags or fusion partners. Residues count along the entry.
UniProt P18508, 39-199, stated change not applied: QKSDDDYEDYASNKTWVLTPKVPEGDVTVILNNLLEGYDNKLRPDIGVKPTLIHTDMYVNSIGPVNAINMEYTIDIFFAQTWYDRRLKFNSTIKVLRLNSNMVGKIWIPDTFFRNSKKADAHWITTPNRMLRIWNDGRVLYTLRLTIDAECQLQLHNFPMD
UniProt P62813, 28-455, stated change not applied: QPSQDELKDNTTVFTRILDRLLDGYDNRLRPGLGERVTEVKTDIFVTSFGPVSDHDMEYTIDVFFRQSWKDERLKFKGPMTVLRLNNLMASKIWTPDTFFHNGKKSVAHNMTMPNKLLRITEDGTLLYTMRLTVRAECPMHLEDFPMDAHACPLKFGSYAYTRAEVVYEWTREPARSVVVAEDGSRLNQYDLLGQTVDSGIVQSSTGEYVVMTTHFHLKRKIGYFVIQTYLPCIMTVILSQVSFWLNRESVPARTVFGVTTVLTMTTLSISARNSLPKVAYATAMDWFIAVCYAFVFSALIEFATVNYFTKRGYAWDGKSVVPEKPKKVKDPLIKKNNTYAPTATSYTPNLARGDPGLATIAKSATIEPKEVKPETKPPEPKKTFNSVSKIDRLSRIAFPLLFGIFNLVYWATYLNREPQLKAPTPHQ
UniProt P62813, 28-455 F126C: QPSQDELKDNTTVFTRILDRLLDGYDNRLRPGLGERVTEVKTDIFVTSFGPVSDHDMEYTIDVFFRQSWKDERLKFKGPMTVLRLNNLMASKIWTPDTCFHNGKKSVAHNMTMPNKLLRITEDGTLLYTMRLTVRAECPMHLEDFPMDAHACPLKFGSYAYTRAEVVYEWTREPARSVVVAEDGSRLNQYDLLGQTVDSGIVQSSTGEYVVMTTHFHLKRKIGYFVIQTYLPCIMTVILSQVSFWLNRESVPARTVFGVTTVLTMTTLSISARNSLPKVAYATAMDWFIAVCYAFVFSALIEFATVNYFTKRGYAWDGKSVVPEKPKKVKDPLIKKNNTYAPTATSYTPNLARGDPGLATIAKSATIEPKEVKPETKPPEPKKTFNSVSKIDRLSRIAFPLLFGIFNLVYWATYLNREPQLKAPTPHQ

Assays:
[1] = target: αβγM130C (α1β2γ2 GABAA receptor mutant) (Rattus norvegicus, UniProt P18508+P62813, INS375LLRMFSFK/M168C); details: γ2M130C compared to WT
[2] = target: αF99Cβγ (α1β2γ2 GABAA receptor mutant) (Rattus norvegicus, UniProt P18508+P62813, F126C/INS375LLRMFSFK); details: α1F99C compared to WT
[3] = target: αβγR132C (α1β2γ2 GABAA receptor mutant) (Rattus norvegicus, UniProt P18508+P62813, INS375LLRMFSFK/R170C); details: γ2R132C compared to WT
[4] = target: αβγT81C (α1β2γ2 GABAA receptor mutant) (Rattus norvegicus, UniProt P18508+P62813, INS375LLRMFSFK/T119C); details: γ2T81C compared to WT
[5] = target: αβχ161 (γ2/α1 chimeric subunit χ161 with WT α1 and β2 subunits) (Rattus norvegicus, UniProt P18508+P62813); details: cited from earlier work

Compound | increase in affinity [1] | reduction in affinity [2] [fold] | increase in affinity [3] | effect on affinity [4] [fold] | binding affinity relative to WT [5]
Cc1ccc(-c2nc3ccc(C)cn3c2CC(=O)N(C)C)cc1 [Zolpidem, zolpidem] | 2-4 fold | ~3 | 2-4 fold | < 2 | 
CN1C(=O)CN=C(c2ccccc2F)c2cc([N+](=O)[O-])ccc21 [flunitrazepam] |  |  |  |  | retained WT binding affinity
